# Measured values taken from PubChem BioAssay (Tox21).
# The entries are a selection whose mix differs from that of the whole data set. Records with an inconclusive call do not appear. Entries that show only a call come without a potency. Activity calls are given as the source filed them. Calls follow the shape of the dose curve; as a rule, active = well fitted cell-killing curve with a large enough effect in the repeat runs; inconclusive = weak or mixed curves; inactive = no such curve, though single readings can be large or run the other way.
# Assay: qHTS assay to identify small molecule antagonists of the androgen receptor (AR) signaling pathway - cell viability counter screen (AID 743033; also: nearly all actives have a fitted effect of over 45% in size)
# Conditions: AR-bla HEK293 viability, CellTiter-Glo luminescence, 16 h; series mostly up to 58.5 µM
# Excerpt: National Center for Advancing Translational Sciences [NCATS]
# NIH Chemical Genomics Center [NCGC]
# U.S. Environmental Protection Agency [EPA]
# National Institutes of Environmental Health Sciences [NIEHS]
# National Toxicology Program [NTP]
# U.S. Food and Drug Administration [FDA]
# Androgen receptor (AR), a nuclear hormone receptor, plays a critical role in AR-dependent prostate cancer and other androgen related diseases. Endocrine disrupting chemicals (EDCs) and their interactions with steroid hormone receptors like AR may cause disruption of normal endocrine function as well as interfere with metabolic homeostasis, reproduction, developmental and behavioral functions. To identify the compounds that inhibit AR signaling, GeneBLAzer AR-UAS-bla-GripTite cell line (Invitrogen, Carlsbad, CA, USA) containing a beta-lactamase reporter gene under control of an Upstream Activator Sequence (UAS) stably integrated into HEK293 cells was used to screen the Tox21 10K compound library. The cytotoxicity of the Tox21 compound library against the AR-bla cell line was tested in parallel by measuring the cell viability using CellTiter-Glo assay in the same wells.
# Tox21 Assay Protocol Summary:
# AR-bla cells were dispensed at 2,000 cells/5 uL of assay medium per well into black wall/clear-bottom 1536-well plates using a Multidrop Combi (ThermoFisher Scientific, Waltham, MA) dispenser. After the assay plates were incubated at a 37C and 5% CO2 for 4 hr, 23 nL of compounds dissolved in DMSO, positive controls or DMSO only was transferred to the assay plate by a Pintool station (Kalypsys, San Diego, CA), followed by addition of 1 uL of agonist (R1881) in culture medium using a Bioraptr Flying Reagent Dispenser (FRD) workstation (Beckman Coulter, Indianapolis, IN, USA). The plates were incubated at a 37C and 5% CO2 for 16 h. After 1 uL of LiveBLAzerTM B/G FRET substrate was added using a Bioraptr FRD, the plates were incubated at room temperature for 2 h and fluorescence intensity was measured by an Envision plate reader (PerkinElmer, Shelton, CT). For cell viability readout that measures cytotoxicity, 4 ul/well of CellTiter-Glo reagent was added into the assay plates using a Bioraptr FRD. After 30 min incubation at room temperature, the luminescence intensity in the plates was measured using a ViewLux (PerkinElmer) plate reader.
# Potency is read from the fitted curve at half-maximal effect.
row,SMILES,Potency
1,CCCCO[P+](=O)OCCCC,inactive
2,O=P(Cl)(Cl)c1ccccc1,inactive
3,O=P(Cl)(Oc1ccccc1)Oc1ccccc1,inactive
4,CN(C(=O)Cc1ccc(Cl)c(Cl)c1)[C@H]1CC[C@@]2(CCCO2)C[C@@H]1N1CCCC1,inactive
5,CCCCCCCCCCCCCC[P+](CCCCCC)(CCCCCC)CCCCCC,active: 435 nM
6,O=[N+]([O-])c1ccc(S(=O)(=O)O)c([N+](=O)[O-])c1,inactive
7,CCOC(=O)Cl,inactive
8,ClP(Cl)c1ccccc1,inactive
9,CC(C)CCCCCCCOP(OCCCCCCCC(C)C)Oc1ccccc1,inactive
10,NC(=O)Nc1ccc([As](=O)(O)O)cc1,inactive
11,O=[As]c1ccccc1 (configuration not stated),active: 490 nM
12,COP(=S)(Cl)OC,inactive
13,CN(N=O)C(=N)N[N+](=O)[O-],inactive
14,CN(C(=O)Cc1ccccc1)[C@H]1CC[C@@]2(CCCO2)C[C@@H]1N1CCCC1,inactive
15,O=C(OC1CN2CCC1CC2)c1ccccc1 (configuration not stated),inactive
16,O=[P+](Oc1ccccc1)Oc1ccccc1,inactive
17,CCCCC(CC)CO[P+](=O)OCC(CC)CCCC (configuration not stated),inactive
18,CN(C(=O)Cc1cccc2occc12)[C@H]1CC[C@@]2(CCCO2)C[C@@H]1N1CCCC1,inactive
19,COC(=O)Cl,inactive
20,CCOP(=S)(CC)Sc1ccccc1 (configuration not stated),inactive
21,CCNC(C)Cc1ccc2c(c1)OCO2 (configuration not stated),inactive
22,O=[p+]1oc2ccccc2c2ccccc21 (configuration not stated),inactive
